Data: paper PMC5185321 (Journal of medicinal chemistry, 2015)

Target: T1, 15-hydroxyprostaglandin dehydrogenase (HPGD) (Homo sapiens, UniProt P15428)
T1 sequence (P15428 1-266): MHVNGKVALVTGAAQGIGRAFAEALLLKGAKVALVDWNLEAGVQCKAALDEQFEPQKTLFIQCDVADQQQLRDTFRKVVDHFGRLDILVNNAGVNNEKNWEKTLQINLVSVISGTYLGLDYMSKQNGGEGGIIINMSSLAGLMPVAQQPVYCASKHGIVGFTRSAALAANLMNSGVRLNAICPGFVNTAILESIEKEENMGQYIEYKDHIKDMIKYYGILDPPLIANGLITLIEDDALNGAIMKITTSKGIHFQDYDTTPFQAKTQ
Assay: biochemical

Structure (SMILES)	IC50 [µM]
CNC(=O)c1ccc(Oc2nc3c(c(=O)n(C)c(=O)n3C)n2Cc2cccc(C)c2)cc1 [Compound 12, 4-((1,3-dimethyl-7-(3-methylbenzyl)-2,6-dioxo-2,3,6,7-tetrahydro-1H-purin-8-yl)oxy)-N-methylbenzamide]	> 57
Cc1cccc(Cn2c(OC3CCN(C(=O)C4CC4)CC3)nc3c2c(=O)n(C)c(=O)n3C)c1 [Compound 34, 8-((1-(cyclopropanecarbonyl)piperidin-4-yl)oxy)-1,3-dimethyl-7-(3-methylbenzyl)-1H-purine-2,6(3H,7H)-dione]	> 57
CCOC(=O)N1CCN(Cc2nc3c(c(=O)n(C)c(=O)n3C)n2Cc2cccc(C)c2)CC1 [Compound 5, ethyl 4-((1,3-dimethyl-7-(3-methylbenzyl)-2,6-dioxo-2,3,6,7-tetrahydro-1H-purin-8-yl)methyl)piperazine-1-carboxylate]	> 57
